Patent US12030872B2, “N-heteroaryl indazole derivatives as LRRK2 inhibitors, pharmaceutical compositions, and uses thereof” (Merck Sharp & Dohme LLC, priority 2018, dated 2024)

Sequences of proteins named here, by UniProt entry; tags and fusion partners are left off. Residues count along the entry.
UniProt Q5S007, 970-2527 G2019S: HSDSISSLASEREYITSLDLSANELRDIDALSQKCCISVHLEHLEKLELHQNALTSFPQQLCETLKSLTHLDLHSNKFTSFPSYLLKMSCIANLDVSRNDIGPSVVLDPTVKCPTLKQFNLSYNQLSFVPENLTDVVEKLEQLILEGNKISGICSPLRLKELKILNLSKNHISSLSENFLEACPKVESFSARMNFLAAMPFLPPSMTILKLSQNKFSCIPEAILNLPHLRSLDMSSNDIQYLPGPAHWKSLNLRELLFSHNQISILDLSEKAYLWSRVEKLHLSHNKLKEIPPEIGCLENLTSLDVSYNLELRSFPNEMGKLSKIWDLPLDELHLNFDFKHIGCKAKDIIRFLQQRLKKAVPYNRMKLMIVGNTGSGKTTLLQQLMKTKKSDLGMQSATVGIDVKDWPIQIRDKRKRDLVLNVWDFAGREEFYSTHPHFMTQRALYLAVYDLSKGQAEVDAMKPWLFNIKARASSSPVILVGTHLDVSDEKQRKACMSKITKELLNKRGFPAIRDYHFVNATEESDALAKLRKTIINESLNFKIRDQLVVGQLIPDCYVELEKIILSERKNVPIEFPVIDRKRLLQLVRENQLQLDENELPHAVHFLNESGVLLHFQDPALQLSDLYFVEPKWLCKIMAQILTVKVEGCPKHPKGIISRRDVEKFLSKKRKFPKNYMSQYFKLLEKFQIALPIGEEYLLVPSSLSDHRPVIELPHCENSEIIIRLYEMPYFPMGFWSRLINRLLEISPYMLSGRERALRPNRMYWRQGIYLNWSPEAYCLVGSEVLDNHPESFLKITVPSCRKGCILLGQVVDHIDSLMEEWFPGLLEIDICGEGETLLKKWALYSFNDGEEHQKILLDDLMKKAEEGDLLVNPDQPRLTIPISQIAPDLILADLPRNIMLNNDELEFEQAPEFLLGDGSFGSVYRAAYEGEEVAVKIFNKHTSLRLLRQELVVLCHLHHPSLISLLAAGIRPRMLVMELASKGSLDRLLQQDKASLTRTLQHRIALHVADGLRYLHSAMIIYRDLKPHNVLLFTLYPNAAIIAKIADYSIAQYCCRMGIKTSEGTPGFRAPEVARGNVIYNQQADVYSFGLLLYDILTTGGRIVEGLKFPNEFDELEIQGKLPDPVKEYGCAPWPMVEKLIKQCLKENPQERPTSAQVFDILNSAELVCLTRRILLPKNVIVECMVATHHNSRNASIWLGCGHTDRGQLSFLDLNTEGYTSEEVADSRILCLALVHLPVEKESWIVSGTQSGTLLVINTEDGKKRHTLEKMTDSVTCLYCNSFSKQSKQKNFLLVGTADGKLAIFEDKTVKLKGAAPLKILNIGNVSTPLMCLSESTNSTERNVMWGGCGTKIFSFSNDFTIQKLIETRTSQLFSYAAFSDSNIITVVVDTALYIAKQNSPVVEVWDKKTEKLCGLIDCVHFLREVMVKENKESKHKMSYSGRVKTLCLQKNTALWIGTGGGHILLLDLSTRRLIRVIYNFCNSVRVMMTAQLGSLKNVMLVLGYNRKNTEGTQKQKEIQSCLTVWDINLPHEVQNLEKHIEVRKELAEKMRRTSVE

target: GST-tagged truncated human mutant G2019S LRRK2 (Homo sapiens (Human), UniProt Q5S007, G2019S); experiment: LRRK2 G2019S Km ATP LanthaScreen Assay; conditions: LRRK2 IC50, G2019S LRRK2, 134 μM ATP (Km ATP), LRRKtide substrate; mean IC50 values

IC50 | SMILES
797 nM | COC(=O)C12CC(c3cc4c(cnn4-c4cnn(C)c4)cc3Cl)(C1)C2 [Example 33.1, methyl 3-(5-chloro-1-(1-methyl-1H-pyrazol-4-yl)-1H-indazol-6-yl)bicyclo[1.1.1]pentane-1-carboxylate]
< 0.625 nM | O=S1(=O)CCC(N2CCC(c3cc4c(cnn4-c4cnn(C56CC(C5)C6)c4)cc3Cl)CC2)C1 (racemic) [Example 38.2, (R and S)-3-(4-(1-(1-(bicyclo[1.1.1]pentan-1-yl)-1H-pyrazol-4-yl)-5-chloro-1H-indazol-6-yl)piperidin-1-yl)tetrahydrothiophene 1,1-dioxide]
9.7 nM | CN1CCC(c2cc3c(cnn3-c3cnn(C)c3)cc2Cl)CC1CO (stereo not drawn) [Example 25.5, (4-(5-chloro-1-(1-methyl-1H-pyrazol-4-yl)-1H-indazol-6-yl)-1-methylpiperidin-2-yl)methanol]

The next lines start with the compound.

SMILES | IC50
Clc1cc2cnn(-c3cnn(C4CC4)c3)c2cc1C1CCN(C2COC2)CC1 [Example 2.2, 5-chloro-1-(1-cyclopropyl-1H-pyrazol-4-yl)-6-(1-(oxetan-3-yl)piperidin-4-yl)-1H-indazole] | < 0.625 nM
CC1(N2CCC(c3cc4c(cnn4-c4cnn(C5CC5)c4)cc3Cl)CC2)CCOC1 (single isomer, unassigned) [Example 15.3-2, (R or S)-5-chloro-1-(1-cyclopropyl-1H-pyrazol-4-yl)-6-(1-(3-methyltetrahydrofuran-3-yl)piperidin-4-yl)-1H-indazole] | 3.5 nM
CC1(N2CCC(c3cc4c(cnn4-c4cnn(CC(F)F)c4)cc3Cl)CC2)COC1 [Example 11.1, 5-chloro-1-(1-(2,2-difluoroethyl)-1H-pyrazol-4-yl)-6-(1-(3-methyloxetan-3-yl)piperidin-4-yl)-1H-indazole] | 3.4 nM
Cn1cc(-n2ncc3cc(Cl)c(C4CCN(CC(F)F)CC4)cc32)cn1 [Example 18.2, 5-chloro-6-(1-(2,2-difluoroethyl)piperidin-4-yl)-1-(1-methyl-1H-pyrazol-4-yl)-1H-indazole] | 23.2 nM
Cn1cc(-n2ncc3cc(Cl)c(C4CCN(C5CCOC5)CC4)cc32)cn1 (single isomer, unassigned) [Example 14.2-1, (R or S)-5-chloro-1-(1-methyl-1H-pyrazol-4-yl)-6-(1-(tetrahydrofuran-3-yl)piperidin-4-yl)-1H-indazole] | 1.2 nM
Cc1cc2cnn(-c3cnn(C)c3)c2cc1C1CCN(C2COC2)CC1 [Example 6.1, 5-methyl-1-(1-methyl-1H-pyrazol-4-yl)-6-(1-(oxetan-3-yl)piperidin-4-yl)-1H-indazole] | 1.1 nM
Cn1cc(-n2ncc3cc(Cl)c(C4CCN(CCS(C)(=O)=O)CC4)cc32)cn1 [Example 16.2, 5-chloro-1-(1-methyl-1H-pyrazol-4-yl)-6-(1-(2-(methylsulfonyl)ethyl)piperidin-4-yl)-1H-indazole] | < 0.625 nM
CC1(N2CCC(c3cc4c(cnn4-c4cnn(C5CC5)c4)cc3Cl)CC2)CCOC1 (single isomer, unassigned) [Example 15.3-1, (R or S)-5-chloro-1-(1-cyclopropyl-1H-pyrazol-4-yl)-6-(1-(3-methyltetrahydrofuran-3-yl)piperidin-4-yl)-1H-indazole] | < 0.625 nM
Cc1cc(-n2ncc3cc(Cl)c([C@@H]4CCN(C)C[C@H]4F)cc32)sn1 (single isomer, unassigned) [Example 19.8-1] | 8.3 nM
CCC1(N2CCC(c3cc4c(cnn4-c4cnn(C5CC5)c4)cc3Cl)CC2)COC1 [Example 13.2, 5-chloro-1-(1-cyclopropyl-1H-pyrazol-4-yl)-6-(1-(3-ethyloxetan-3-yl)piperidin-4-yl)-1H-indazole] | 2.7 nM
COCC12CC(n3cc(-n4ncc5cc(Cl)c(C6CCN(C7(C)COC7)CC6)cc54)cn3)(C1)C2 [Example 7.2-5, 5-chloro-1-(1-(3-(methoxymethyl)bicyclo[1.1.1]pentan-1-yl)-1H-pyrazol-4-yl)-6-(1-(3-methyloxetan-3-yl)piperidin-4-yl)-1H-indazole] | < 0.625 nM
N#Cc1cc2cnn(-c3cnn(C4CC4)c3)c2cc1C1CCN(C2COC2)CC1 [Example 12.2, 1-(1-cyclopropyl-1H-pyrazol-4-yl)-6-(1-(oxetan-3-yl)piperidin-4-yl)-1H-indazole-5-carbonitrile] | 0.8 nM

same assay, conditions: read-out: LRRK2 IC50; G2019S LRRK2, 134 μM ATP (Km ATP), LRRKtide substrate; mean IC50 values

IC50 | SMILES
0.9 nM | Cc1cc2cnn(-c3cnn(C)c3)c2cc1[C@@H]1CCN(C2(C)COC2)C[C@@H]1C (mixture of isomers) [Example 24.6, (R,R and S,S)-5-methyl-6-(3-methyl-1-(3-methyloxetan-3-yl)piperidin-4-yl)-1-(1-methyl-1H-pyrazol-4-yl)-1H-indazole]
13.7 nM | Cc1cc2cnn(-c3cnn(C)c3)c2cc1C1CCN(C)C[C@H]1F (single isomer, unassigned) [Example 21.6-1, (R,R or S,S)-6-(3-fluoro-1-methylpiperidin-4-yl)-5-methyl-1-(1-methyl-1H-pyrazol-4-yl)-1H-indazole]
5.8 nM | Cn1cc(-n2ncc3cc(Cl)c(C4CCN(C5COC5)CC4F)cc32)cn1 (single isomer, unassigned) [Example 20.2-2, (R,R or S,S)-5-chloro-6-(3-fluoro-1-(oxetan-3-yl)piperidin-4-yl)-1-(1-methyl-1H-pyrazol-4-yl)-1H-indazole]
3.8 nM | Cc1cc2cnn(-c3cnn(C)c3)c2cc1C1CCN(C)C[C@H]1F (single isomer, unassigned) [Example 21.6-2, (R,R or S,S)-6-(3-fluoro-1-methylpiperidin-4-yl)-5-methyl-1-(1-methyl-1H-pyrazol-4-yl)-1H-indazole]
< 0.625 nM | CC1(N2CC[C@@H](c3cc4c(cnn4-c4cnn(C56CC(C5)C6)c4)cc3Cl)[C@H](F)C2)COC1 (single isomer, unassigned) [Example 36.2, (R,R or S,S)-1-(1-(bicyclo[1.1.1]pentan-1-yl)-1H-pyrazol-4-yl)-5-chloro-6-(3-fluoro-1-(3-methyloxetan-3-yl)piperidin-4-yl)-1H-indazole]
4.3 nM | Cc1cc2cnn(-c3cnn(C)c3)c2cc1C1CCN(C2COC2)C[C@H]1F (single isomer, unassigned) [Example 22.1-2, (R,R or S,S)-6-(3-fluoro-1-(oxetan-3-yl)piperidin-4-yl)-5-methyl-1-(1-methyl-1H-pyrazol-4-yl)-1H-indazole]

Further lines, the compound ahead of its results:

SMILES | IC50
CN1CCC(c2cc3c(cnn3-c3cnn(C)c3)cc2Cl)C(F)C1 (single isomer, unassigned) [Example 19.7-1, (R,R or S,S)-5-chloro-6-(3-fluoro-1-methylpiperidin-4-yl)-1-(1-methyl-1H-pyrazol-4-yl)-1H-indazole] | 3.9 nM
Cc1cnc(-n2ncc3cc(Cl)c(C4CCN(C5COC5)CC4)cc32)o1 [Example 2.6] | 3.7 nM
Cc1nnc(-n2ncc3cc(Cl)c(C4CCN(C5(C)COC5)CC4)cc32)o1 [Example 7.8] | 7.1 nM
COCCN1CCC(c2cc3c(cnn3-c3cnn(C)c3)cc2Cl)CC1 [Example 18.4] | 11.3 nM
Cn1cc(-n2ncc3cc(Cl)c(C4CCN(C5COC5)CC4F)cc32)cn1 (single isomer, unassigned) [Example 20.2-1, (R,R or S,S)-5-chloro-6-(3-fluoro-1-(oxetan-3-yl)piperidin-4-yl)-1-(1-methyl-1H-pyrazol-4-yl)-1H-indazole] | 1.7 nM
CCCn1cc(-n2ncc3cc(Cl)c(C4CCN(C5(C)COC5)CC4)cc32)cn1 [Example 11.5] | 3.3 nM
